Experimental data as given in patent US20240398829A1, “A COBALT-[…] AMINO ACID COMPLEX AND ITS USE FOR TREATING CANCER” (AMELIO BIOTECH CO., LTD., priority 2021, published 2024).

Experiments:
zebrafish liver = assay: Hepatoxicity assay in Tg(fabp10a:EGFP-mCherry) embryos; conditions: 100 μM, embryos treated from 3 dpf

cobalt-containing glutamic acid (COGA) complex
liver toxicity (liver size vs DMSO control) (zebrafish liver): no liver toxicity | mortality rate of embryos (zebrafish embryos; at 0.01×(1 μM), 0.1×(10 μM) and 1×(100 μM), tested range 1-2000 μM): lowest | embryonic toxicity (zebrafish embryos; conclusion): no hepatoxicity and embryonic toxicity
